Experimental data reported in PubChem BioAssay AID1259318 (Sanford-Burnham Center for Chemical Genomics, 2017).
This is a selection; strong and weak results do not stand in their true shares. Active and inactive are the calls of the source.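 The calls were made as follows: active = activity above about 14% (limit read from the data; passing the limit was not always enough); inactive = the rest.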

The chains behind the UniProt entries cited, without tags or fusion partners.
UniProt P20393, whole entry, looked up: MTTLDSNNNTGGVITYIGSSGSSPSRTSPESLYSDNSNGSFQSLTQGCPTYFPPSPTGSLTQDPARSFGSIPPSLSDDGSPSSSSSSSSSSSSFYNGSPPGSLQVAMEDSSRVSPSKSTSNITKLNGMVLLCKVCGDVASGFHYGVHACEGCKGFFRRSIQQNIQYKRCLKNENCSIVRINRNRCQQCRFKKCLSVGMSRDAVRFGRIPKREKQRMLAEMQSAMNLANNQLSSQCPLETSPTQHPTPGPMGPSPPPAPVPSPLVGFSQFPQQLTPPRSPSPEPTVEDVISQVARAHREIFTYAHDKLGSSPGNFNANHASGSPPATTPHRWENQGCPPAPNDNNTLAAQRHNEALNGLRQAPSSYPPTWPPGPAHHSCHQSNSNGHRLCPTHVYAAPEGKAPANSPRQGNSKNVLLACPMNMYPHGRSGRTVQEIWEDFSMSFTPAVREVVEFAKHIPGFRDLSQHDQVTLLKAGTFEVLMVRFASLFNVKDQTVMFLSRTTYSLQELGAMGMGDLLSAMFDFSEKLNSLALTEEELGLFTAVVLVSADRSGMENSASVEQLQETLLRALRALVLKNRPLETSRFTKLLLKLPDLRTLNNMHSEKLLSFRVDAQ

target: Nuclear receptor subfamily 1 group D member 1 (Homo sapiens) (UniProt P20393); assay: Rev-erbα–DNA interaction modulation – biochemical, FITC-DNA, fluorescence polarization, uHTS, primary screen (AID 1259318); conditions: Rev-erbα–FITC-DNA binding, 90 min, at 10 µM, stronger effect = higher value;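 also: 0% = DMSO wells with 35 nM protein and 100% = DMSO wells with 750 nM protein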

SMILES | activity
N/C(=N\O)c1c(N)no[n+]1[O-] | inactive: -3.76%
COc1cccc(C(c2nnnn2C(C)(C)C)N2CCC(n3c(=O)[nH]c4ccccc43)CC2)c1OC (centres undefined) | inactive: 3.54%
CCOC(=O)N1CCC(Nc2ccc(C)cc2)CC1 | inactive: 0.21%
CCCCn1nnnc1C(c1cccc(OC)c1OC)N1CCC(n2c(=O)[nH]c3ccccc32)CC1 (centres undefined) | inactive: 0.09%
O=c1[nH]c2ccccc2n1C1CCN(C(c2cccs2)c2nnnn2C2CCCC2)CC1 (centres undefined) | inactive: -2.77%
O=C(OC1CN2CCC1CC2)C1c2ccccc2C=Cc2ccccc21 (centres undefined) | inactive: 3.43%
O=C(NCC1(N2CCOCC2)CCCCC1)c1cc(Br)ccc1Cl | inactive: -3.36%
COc1cc(C(=O)NCC2(N3CCOCC3)CCCCC2)cc(OC)c1C | inactive: -4.39%
CCCCn1nnnc1C(c1ccccc1)N1CCC(n2c(=O)[nH]c3ccccc32)CC1 (centres undefined) | inactive: -8.59%
O=c1[nH]c2ccccc2n1C1CCN(C(c2ccnc3ccccc23)c2nnnn2C2CCCC2)CC1 (centres undefined) | inactive: -6.84%
COc1ccc(C(=O)NCC2(N3CCOCC3)CCCCC2)cc1OC | inactive: -0.92%
NC(=O)C1(Nc2ccccc2)CCN(Cc2ccccc2)CC1 | inactive: -0.47%
O=c1[nH]c2ccccc2n1C1CCN(C(c2cccs2)c2nnnn2C2CCCCC2)CC1 (centres undefined) | inactive: -1.6%
O=c1[nH]c2ccccc2n1C1CCN(C(c2ccccc2)c2nnnn2C2CCCC2)CC1 (centres undefined) | inactive: 0.12%
CCCN1CCC(Nc2cc(OC)cc(OC)c2)CC1 | inactive: 1.08%
Cc1cc(N(CCCl)CCCl)ccc1C=O | inactive: -3.63%
c1ccc(CN2CCC(Nc3ccccc3)CC2)cc1 | inactive: -4.73%
C/C(N)=N\P(=O)(Oc1ccccc1)Oc1ccccc1 | inactive: 5.19%
CN(C)C1(CNC(=O)c2cccc(C#N)c2)CCCCC1 | inactive: 2.19%
CC(C)(C)n1nnnc1C(c1cccc2ccccc12)N1CCC(n2c(=O)[nH]c3ccccc32)CC1 (centres undefined) | inactive: 5.87%
CC(C)(C)OC(=O)N1CCC(N(C(=O)c2ccccc2)c2ccc(Cl)cc2)CC1 | inactive: -0.83%
N#Cc1ccc(C(=O)NCC2(N3CCCCC3)CCCCC2)cc1 | inactive: 4.59%
CC(C)(C)n1nnnc1C(c1ccnc2ccccc12)N1CCC(n2c(=O)[nH]c3ccccc32)CC1 (centres undefined) | inactive: 0.35%
COc1ccc(C(c2nnnn2C2CCCCC2)N2CCC(n3c(=O)[nH]c4ccccc43)CC2)cc1 (centres undefined) | inactive: 3.97%
CCN1CCC(Nc2cccc(F)c2)CC1 | inactive: -0.37%

SMILES | activity
Cc1ccccc1NC1(C#N)CCN(Cc2ccccc2)CC1 | inactive: -1.78%
Cn1c(=O)[nH]cc(N(CCCl)CCCl)c1=O | inactive: -1.68%
CN(C)c1ccc(C(=O)NCC2(N3CCCCC3)CCCCC2)cc1 | inactive: 0.75%
O=C(NCC1(N2CCCCC2)CCCCC1)c1ccco1 | inactive: -3.77%
O=c1[nH]c2ccccc2n1C1CCN(C(c2ccnc3ccccc23)c2nnnn2C2CCCCC2)CC1 (centres undefined) | inactive: -4.48%
COc1cc(OC)cc(C(=O)NCC2(N3CCCCC3)CCCCC2)c1 | inactive: 0.27%
CCC(c1nnnn1C1CCCCC1)N1CCC(n2c(=O)[nH]c3ccccc32)CC1 (centres undefined) | inactive: 0.95%
CC(=O)N(c1ccccc1)C1CCNCC1 | inactive: -3.46%
COc1cccc(C(c2nnnn2C2CCCCC2)N2CCC(n3c(=O)[nH]c4ccccc43)CC2)c1OC (centres undefined) | inactive: -2.85%
Cc1ccc(NC2(C#N)CCN(Cc3ccccc3)CC2)cc1 | inactive: 4.38%
Fc1ccccc1NC1CCN(Cc2ccccc2)CC1 | inactive: 0.74%
Cc1ccc(C(=O)NCC2(N3CCCCC3)CCCCC2)o1 | inactive: -0.43%
CCC(CO)(C(=O)OC1CN2CCC1CC2)c1ccccc1 (centres undefined) | inactive: -2.42%
COc1cccc(C(c2nnnn2C2CCCC2)N2CCC(n3c(=O)[nH]c4ccccc43)CC2)c1OC (centres undefined) | inactive: 1.25%
COc1cc(OC)cc(C(=O)NCC2(N3CCOCC3)CCCCC2)c1 | inactive: 5.09%
COc1cccc(C(=O)N(c2cc(C)cc(C)c2)C2CCN(C(=O)OC(C)(C)C)CC2)c1 | inactive: 9.28%
CN1CCC(Nc2ccc(Cl)cc2)CC1 | inactive: 0.98%
CN1CCC(Nc2ccc(F)c(Cl)c2)CC1 | inactive: 3.29%
CCOc1ncccc1C(=O)NCC1(N2CCOCC2)CCCCC1 | inactive: 1.85%
CCCOc1ccc(C(=O)NCC2(N(C)C)CCCCC2)cc1 | inactive: -3.02%
O=c1[nH]c2ccccc2n1C1CCN(C(c2cc3ccccc3o2)c2nnnn2C2CCCC2)CC1 (centres undefined) | inactive: -0.06%
O=C(O)C1(Nc2ccccc2)CCN(Cc2ccccc2)CC1 | inactive: -1.33%
NN(c1ccccc1)C1CCN(CCc2ccccc2)CC1 | inactive: 3.92%
CC(C)(C)OC(=O)N1CCC(Nc2ccccc2)CC1 | inactive: 4.17%
